Data reported in PubChem BioAssay AID602141 (Sanford-Burnham Center for Chemical Genomics, 2011).
The list shows a part of the results, in another mix than the full data. Some tests of the compounds listed are not included; inactive here does not mean inactive elsewhere. Active and inactive are the calls of the source.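 How the source made its calls: active means corrected activity change at or below -50% at 5 µM; inactive means the rest.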

Test: cytotoxicity in KKLEB CF airway cells, primary screen, cytotoxicity control for CF NF-kB inhibitor project, cell-based, uHTS, fluorescence assay plates (AID 602141)
Conditions: KKLEB CF airway cells viability, ATPlite luminescence, overnight; at 5 µM; stronger effect = lower value; cells stimulated with P. aeruginosa culture filtrate

| Structure (SMILES) | activity change (cytotoxicity) |
| --- | --- |
| O=C(NCC1(N2CCCCC2)CCCCC1)c1cc([N+](=O)[O-])ccc1Cl | inactive: 0.2% |
| CN1[C@@H]2CC[C@H]1CC(OC(=O)C(O)(c1ccccc1)c1ccccc1)C2 (stereo partly specified) | inactive: -2.2% |
| CC(C)N1C(=O)CC2(CCN(CCOC(=O)C(O)(c3ccccc3)c3ccccc3)CC2)C1=O | inactive: 8.1% |
| CCN(CC)CC(C)C(C)OC(=O)C(O)(c1ccccc1)c1ccccc1 (stereo unspecified) | inactive: 10.5% |
| COc1cc(SC)ccc1C(=O)NCC1(N(C)C)CCCCC1 | inactive: 22.4% |
| Cc1ccc(C(=O)NCC2(N3CCCCC3)CCCCC2)cc1 | inactive: -1.6% |
| Cc1ccccc1C(=O)NCC1(N2CCCCC2)CCCCC1 | inactive: -4.8% |
| CN(C)C1CCCC1OC(=O)C(O)(c1ccccc1)c1ccccc1 (stereo unspecified) | inactive: 14.5% |
| CN(C)c1ccc(C(=O)NCC2(N(C)C)CCCCC2)cc1 | inactive: -11.3% |
| C=CCN1CCN(CCOC(=O)C(O)(c2ccccc2)c2ccccc2)CC1 | inactive: -8.8% |
| O=C(NCC1(N2CCCCC2)CCCCC1)c1cc(F)c(F)cc1Cl | inactive: -7.1% |
| Cc1cc(C(=O)NCC2(N3CCCCC3)CCCCC2)ccc1[N+](=O)[O-] | inactive: -1.9% |
| CCN1CCCC(OC(=O)C2(O)c3ccccc3C=Cc3ccccc32)C1 (stereo unspecified) | inactive: -1.4% |
| O=C(NCC1(N2CCCCC2)CCCCC1)c1cccc(Br)c1 | inactive: 5% |
| COc1ccc(C(=O)NCC2(N(C)C)CCCCC2)cc1 | inactive: 7.9% |
| CN(C)C1(CNC(=O)c2ccc(Br)cc2)CCCCC1 | inactive: -0.3% |
| COc1cc(C(=O)NCC2(N(C)C)CCCCC2)c([N+](=O)[O-])cc1OC | inactive: -5.4% |
| COc1cccc(C(=O)NCC2(N3CCCCC3)CCCCC2)c1 | inactive: 19.9% |
| COc1ccc(Cl)cc1C(=O)NCC1(N(C)C)CCCCC1 | inactive: -0.9% |
| O=C(NCC1(N2CCCCC2)CCCCC1)c1cccc(Cl)c1 | inactive: 5.8% |
| O=C(OC1CN2CCC1CC2)C(CO)(c1ccccc1)c1ccccc1 (stereo unspecified) | inactive: -0.8% |
| COc1ccc(Br)c(C(=O)NCC2(N3CCCCC3)CCCCC2)c1 | inactive: 2.7% |
| C=C(C)C#CC(O)(C(=O)OC1CCN(C)CC1)c1ccccc1 (stereo unspecified) | inactive: 5.7% |
| CN(C)c1cccc(C(=O)NCC2(N(C)C)CCCCC2)c1 | inactive: 4.7% |
| CC(C)Oc1ccc(C(=O)NCC2(N(C)C)CCCCC2)cc1 | inactive: 10.6% |
| O=C(OCCN1CCCC1)C(O)(c1ccccc1)c1ccccc1 | inactive: -11.8% |
